Protein sequences, listed by entry. Tags and fused reporters are not part of them.
UniProt P21554, whole entry: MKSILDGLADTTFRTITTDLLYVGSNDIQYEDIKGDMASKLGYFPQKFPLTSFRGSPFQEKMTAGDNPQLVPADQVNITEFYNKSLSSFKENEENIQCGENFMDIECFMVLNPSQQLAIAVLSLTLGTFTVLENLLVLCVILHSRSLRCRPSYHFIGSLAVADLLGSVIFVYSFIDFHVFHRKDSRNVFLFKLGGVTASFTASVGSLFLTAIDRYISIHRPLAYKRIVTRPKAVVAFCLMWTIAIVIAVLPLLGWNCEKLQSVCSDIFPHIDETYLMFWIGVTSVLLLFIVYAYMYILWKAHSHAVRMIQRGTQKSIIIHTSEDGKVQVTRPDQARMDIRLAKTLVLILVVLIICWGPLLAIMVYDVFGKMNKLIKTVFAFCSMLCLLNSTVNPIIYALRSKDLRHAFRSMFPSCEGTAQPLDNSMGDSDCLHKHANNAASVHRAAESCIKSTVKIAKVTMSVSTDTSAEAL

In ChEMBL document CHEMBL1139370, “Discovery of 1-[9-(4-chlorophenyl)-8-(2-chlorophenyl)-9H-purin-6-yl]-4-ethylaminopiperidine-4-carboxylic acid amide hydrochloride (CP-945,598), a novel, potent, and selective cannabinoid type 1 receptor antagonist” (J Med Chem, 2009):

Molecular target: Cannabinoid receptor 1 (Homo sapiens, UniProt P21554)
Experiment: biochemical
Format: cell-based, HEK293

- pKi: 8.55
Structure (SMILES): CN1CCN(c2ncnc3c2nc(-c2ccccc2Cl)n3-c2ccc(Cl)cc2)CC1

pKi: −log10 of the molar value.
